IC50 data for one compound are collected here from US8133913B2, “Substituted indeno [1,2-b]indole derivatives as novel inhibitors of protein kinase CK2 and their use as tumor therapeutic agents, cytostatics and diagnostic aids” (Heinrich-Heine Universitat Dusseldof, priority 2006, dated 2012).

SMILES strings stand for the structures.

What all share (assay): Proliferation of tumor cell lines (Bracht et al.)
Assay type in all cases: cell-based

In one experiment the test system is 5637. To be noted: read-out: IC50 (μM) Mean, inhibition of cell proliferation. The method, then:
(§1) The IC50 values of the cell proliferation was determined as described by Bracht et al. (28).
as §1

For another experiment, the system named is KYSE-70. Particulars: Homo sapiens, read-out: IC50 (μM) Mean, inhibition of cell proliferation. The protocol: as §1, §1
The test system of another experiment is SISO. Particulars: read-out: IC50 (μM) Mean, inhibition of cell proliferation. The protocol:
as §1, §1

In a further experiment the test system is A427. Particulars: Homo sapiens, A-427, read-out: IC50 (μM) Mean, inhibition of cell proliferation. The method, then: as §1
For a further experiment, the system named is DAN-G. To be noted: read-out: IC50 (μM) Mean, inhibition of cell proliferation. The protocol:
as §1

For the next experiment, the system named is LCLC. To be noted: read-out: IC50 (μM) Mean, inhibition of cell proliferation. The method, then: as §1
The test system of another experiment is MCF-7. Particulars: Homo sapiens, MCF7, read-out: IC50 (μM) Mean, inhibition of cell proliferation. The method, then: as §1
For the next experiment, the system named is RT-4. Particulars: Homo sapiens, read-out: IC50 (μM) Mean, inhibition of cell proliferation. The method, then: as §1

As for `CC(C)n1c2c(=O)ccc(=O)c2c2c(=O)c3ccccc3c21` [Compound 6b, 5-Isopropyl-5H-indeno[1,2-b]indole-6,9,10-trione], the IC50 with 5637 is 1.67 µM; in the experiment with KYSE-70, 1.54 µM; in the experiment with SISO, 1.54 µM; in the experiment on A427, 1.4 µM; in the experiment on DAN-G, > 10 µM; in the experiment on LCLC, 1.47 µM. Besides, the results for the IC50 in the experiment with MCF-7 and in the experiment on RT-4 were 1.32 µM and > 10 µM, respectively.
